According to PubChem BioAssay AID588493 (Sanford-Burnham Center for Chemical Genomics, 2011):
This is a selection; strong and weak results do not stand in their true shares. Some results for these compounds are left out of this collection, so the calls shown say nothing about other tests. Calls of active or inactive are those of the source.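 Rule for the calls: active = inhibition at 20 µM, scaled to each plate's controls, above about 33% (limit read from the data); inactive = the rest.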

By UniProt entry, the sequences of proteins in these tests, tags left out.
UniProt O00487, whole entry: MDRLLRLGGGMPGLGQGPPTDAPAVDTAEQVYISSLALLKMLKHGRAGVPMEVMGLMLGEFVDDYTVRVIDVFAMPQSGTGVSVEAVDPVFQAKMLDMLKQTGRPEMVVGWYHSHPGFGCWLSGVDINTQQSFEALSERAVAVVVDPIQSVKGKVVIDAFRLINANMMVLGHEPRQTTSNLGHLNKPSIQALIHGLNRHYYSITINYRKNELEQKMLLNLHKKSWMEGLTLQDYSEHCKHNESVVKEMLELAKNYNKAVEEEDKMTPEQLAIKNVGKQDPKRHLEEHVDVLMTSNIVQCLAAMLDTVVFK

These molecules were tested against 26S proteasome non-ATPase regulatory subunit 14 (Homo sapiens) (UniProt O00487) (assay: Rpn11 (PSMD14) deubiquitinase inhibitors, primary screen, biochemical, fluorescence polarization, uHTS (AID 588493)). Details: human 26S proteasome, Ub4-pepOG fluorescence polarization; at 20 µM; active compounds read high; 20S core pre-blocked with epoxomicin.
In the case of `Cc1cc(C(=O)NCC2(N3CCCCC3)CCCCC2)ccc1[N+](=O)[O-]`, the inhibition was inactive: -0.2%.
With `CCN1CCCC(OC(=O)C2(O)c3ccccc3C=Cc3ccccc32)C1` (stereo unspecified) the inhibition was inactive: -6.4%.
`O=C(NCC1(N2CCCCC2)CCCCC1)c1cccc(Br)c1` was tested, and the inhibition was inactive: 0.3%.
In the case of `COc1ccc(C(=O)NCC2(N(C)C)CCCCC2)cc1`, the inhibition was inactive: 7.8%.
For `C=CCN1CCN(CCOC(=O)C(O)(c2ccccc2)c2ccccc2)CC1`, the inhibition was inactive: -6.3%.
`O=C(NCC1(N2CCCCC2)CCCCC1)c1cc(F)c(F)cc1Cl` was tested, and the inhibition was inactive: 1.6%.
In the case of `Cc1ccccc1C(=O)NCC1(N2CCCCC2)CCCCC1`, the inhibition was inactive: -0.6%.
`CN(C)C1CCCC1OC(=O)C(O)(c1ccccc1)c1ccccc1` (stereo unspecified) was tested, and the inhibition was inactive: 0%.
With `CN(C)c1ccc(C(=O)NCC2(N(C)C)CCCCC2)cc1` the inhibition was inactive: -1.3%.
In the case of `Cc1ccc(C(=O)NCC2(N3CCCCC3)CCCCC2)cc1`, the inhibition was inactive: 5.3%.
With `CC(C)N1C(=O)CC2(CCN(CCOC(=O)C(O)(c3ccccc3)c3ccccc3)CC2)C1=O` the inhibition was inactive: -0.4%.
`CCN(CC)CC(C)C(C)OC(=O)C(O)(c1ccccc1)c1ccccc1` (stereo unspecified) was tested, and the inhibition was inactive: 0.6%.
In the case of `COc1cc(SC)ccc1C(=O)NCC1(N(C)C)CCCCC1`, the inhibition was inactive: 2.3%.
`CN1[C@@H]2CC[C@H]1CC(OC(=O)C(O)(c1ccccc1)c1ccccc1)C2` (stereo partly specified) was tested, and the inhibition was inactive: -9.8%.
With `O=C(NCC1(N2CCCCC2)CCCCC1)c1cc([N+](=O)[O-])ccc1Cl` the inhibition was inactive: 15%.
For `CN(C)c1cccc(C(=O)NCC2(N(C)C)CCCCC2)c1`, the inhibition was inactive: -3.9%.
For `CC(C)Oc1ccc(C(=O)NCC2(N(C)C)CCCCC2)cc1`, the inhibition was inactive: -4.8%.
`O=C(OCCN1CCCC1)C(O)(c1ccccc1)c1ccccc1` was tested, and the inhibition was inactive: 1.8%.
With `COc1ccc(Br)c(C(=O)NCC2(N3CCCCC3)CCCCC2)c1` the inhibition was inactive: 11.5%.
For `C=C(C)C#CC(O)(C(=O)OC1CCN(C)CC1)c1ccccc1` (stereo unspecified), the inhibition was inactive: 3.2%.
For `O=C(OC1CN2CCC1CC2)C(CO)(c1ccccc1)c1ccccc1` (stereo unspecified), the inhibition was inactive: -3.5%.
In the case of `O=C(NCC1(N2CCCCC2)CCCCC1)c1cccc(Cl)c1`, the inhibition was inactive: -0.5%.
For `COc1cccc(C(=O)NCC2(N3CCCCC3)CCCCC2)c1`, the inhibition was inactive: -3.5%.
`COc1ccc(Cl)cc1C(=O)NCC1(N(C)C)CCCCC1` was tested, and the inhibition was inactive: 4.5%.
`COc1cc(C(=O)NCC2(N(C)C)CCCCC2)c([N+](=O)[O-])cc1OC` was tested, and the inhibition was inactive: 0.8%.
In the case of `CN(C)C1(CNC(=O)c2ccc(Br)cc2)CCCCC1`, the inhibition was inactive: -15.5%.
